Shown are actives, neighbours in structure and some others; about 1.8% of the full set was active somewhere.
DENV2 CPE: inhibitors of DENV2 cytopathic effect, primary screen, cell-based, plate reader, single concentration; DENV2-infected cells, cytopathic effect rescue; 350,000 compounds, 1.7% hits; CPE inhibition, % at 9.99 µM; in the data active = CPE inhibition above about 20%, passing the limit was not always enough; tested in BHK-21 cells;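 also: 0% = median of neutral control wells and 100% = median of positive control wells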
E-selectin induc: E-selectin induction in HUVECs, primary screen, imaging, HUVEC, immunofluorescence imaging, single point; activation, % at 7.58 µM; 260,000 compounds, 0.37% hits; P16581; AID 686992, 2013; normalized: neutral wells 0, TNF-alpha wells 100;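 active = mean E-selectin-positive cell signal at least 10% of the positive control, reached in at least 60% of replicates, without over 20% cell loss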
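Read-out basis: % PE-positive cells; Test system: HUVEC primary endothelial cells; Technique: immunofluorescence imaging; Dosing: single-point compound dose.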
Cneo AK release: Cryptococcus neoformans cell lysis inducers, primary screen, AK release luminescence, single concentration. AID 651654, 2012. lysis activity, % at 15 µM. 360,000 compounds, 0.2% hits. C. neoformans lysis, adenylate kinase release luminescence, 4 h; normalised: neutral wells 0, clomiphene wells 100;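 active = mean lysis activity across replicates of at least 80%, whatever share of replicates individually reach that level; inactive = mean lysis activity below 80%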
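Assay system: log-phase C. neoformans yeast / Quantity: yeast cell density of 5 × 10^6 cells/mL / Medium: fresh YPD growth medium / Compound: single dose / Timing: static 4 h at 37 °C with compound, 1 h detection / Measured by: adenylate kinase release luminescence / Read-out: lysis from increased AK signal / Benchmarks: Clomiphene as positive lysis control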
Yeast UUG start: yeast start codon fidelity modulation | S. cerevisiae UUG-firefly luciferase reporter, luminescence/redox ratio | activity score, % at 18.7 µM | hit rate 0.13% among 350,000 | AID 602363;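 active means replicate mean at a twofold rise or more, about +100% in these data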;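 further: firefly luciferase made from a UUG start codon reports start codon fidelity; reporter light over untreated wells divided by growth signal over untreated wells; some hits fall short of that in this replicate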
* = called active by the depositor.

Results for CCCNC(=O)N(C)C[C@H]1Oc2cc(C3=CCCCC3)ccc2S(=O)(=O)N([C@@H](C)CO)C[C@@H]1C ?
DENV2 CPE: 13; E-selectin induc: 0; Cneo AK release: -3; Yeast UUG start: 9

How did CCC(=O)N(C)C[C@H]1Oc2cc(C3=CCCC3)ccc2S(=O)(=O)N([C@@H](C)CO)C[C@@H]1C do in these assays?
DENV2 CPE: -8; E-selectin induc: 71*; Cneo AK release: 2; Yeast UUG start: 4

What do the screens show for `CCCNC(=O)N(C)C[C@H]1Oc2cc(C3=CCCC3)ccc2S(=O)(=O)N([C@H](C)CO)C[C@H]1C`?
DENV2 CPE: 30*; E-selectin induc: 0; Cneo AK release: -3; Yeast UUG start: 2

How did C[C@H]1CN([C@@H](C)CO)S(=O)(=O)c2ccc(C3=CCCC3)cc2O[C@H]1CN(C)C(=O)C1CCC1 do in these assays?
DENV2 CPE: 21*; E-selectin induc: 0; Cneo AK release: 0; Yeast UUG start: 18

Results for CCC(=O)N(C)C[C@H]1Oc2cc(-c3ccccc3)ccc2S(=O)(=O)N([C@H](C)CO)C[C@H]1C ?
DENV2 CPE: 3; E-selectin induc: 0; Cneo AK release: 89*; Yeast UUG start: 5

What do the screens show for `C[C@@H]1CN([C@@H](C)CO)C(=O)c2cc(NC(=O)c3ccncc3)ccc2O[C@@H](C)CCCCO[C@H]1CN(C)Cc1ccc(C(=O)O)cc1`?
DENV2 CPE: -2; E-selectin induc: 0; Cneo AK release: -1; Yeast UUG start: 2

How did C[C@H](CO)N1C[C@H](C)[C@@H](CN(C)S(=O)(=O)c2ccc(Cl)cc2)Oc2ccc(NC(=O)Nc3ccc(C(F)(F)F)cc3)cc2CC1=O do in these assays?
DENV2 CPE: -1; E-selectin induc: 0

Results for C[C@H](CO)N1C[C@H](C)[C@H](CN(C)C(=O)Nc2ccccc2F)Oc2cc(-c3ccc(F)cc3)ccc2S1(=O)=O ?
DENV2 CPE: 26*; E-selectin induc: 0; Cneo AK release: 3; Yeast UUG start: 7

What do the screens show for `CCC(=O)N(C)C[C@@H]1Oc2cc(C#CC(C)(C)O)ccc2S(=O)(=O)N([C@@H](C)CO)C[C@H]1C`?
DENV2 CPE: -9; E-selectin induc: 0; Cneo AK release: 93*; Yeast UUG start: 6

Results for COCC(=O)N(C)C[C@@H]1Oc2cc(-c3ccc(F)cc3)ccc2S(=O)(=O)N([C@H](C)CO)C[C@@H]1C ?
DENV2 CPE: -3; E-selectin induc: 0; Cneo AK release: -1; Yeast UUG start: -7

3 entries out of the list, sorted by molar mass, highest first:
How did C[C@H](CO)N1C[C@H](C)[C@@H](CN(C)S(=O)(=O)c2ccc(Cl)cc2)Oc2ccc(NC(=O)Nc3ccc(C(F)(F)F)cc3)cc2CC1=O do in these assays?
DENV2 CPE: -1; E-selectin induc: 0

Results for COCC(=O)N(C)C[C@@H]1Oc2cc(-c3ccc(F)cc3)ccc2S(=O)(=O)N([C@H](C)CO)C[C@@H]1C ?
DENV2 CPE: -3; E-selectin induc: 0; Cneo AK release: -1; Yeast UUG start: -7

How did C[C@H]1CN([C@@H](C)CO)S(=O)(=O)c2ccc(C3=CCCC3)cc2O[C@H]1CN(C)C(=O)C1CCC1 do in these assays?
DENV2 CPE: 21*; E-selectin induc: 0; Cneo AK release: 0; Yeast UUG start: 18

(listing goes on)
Results for C[C@H](CO)N1C[C@H](C)[C@H](CN(C)Cc2ccccc2F)Oc2cc(C3=CCCC3)ccc2S1(=O)=O ?
DENV2 CPE: -10; E-selectin induc: 0; Cneo AK release: 101*; Yeast UUG start: 23

What do the screens show for `COCC(=O)N(C)C[C@H]1Oc2cc(-c3ccc(F)cc3)ccc2S(=O)(=O)N([C@@H](C)CO)C[C@H]1C`?
DENV2 CPE: -7; E-selectin induc: 125*; Cneo AK release: 1; Yeast UUG start: -4

What do the screens show for `CN1C(=O)c2cc(NC(=O)c3ccc(F)c(F)c3)ccc2OC[C@@H]2O[C@H](CC(=O)N[C@@H]3CCN(Cc4ccccc4)C3)CC[C@@H]21`?
DENV2 CPE: -3; E-selectin induc: 0; Cneo AK release: 75

Results for CCN1[C@@H]2c3ccc(C4=CCCCC4)c(=O)n3C[C@H]1[C@H](CO)[C@H]2C(=O)N1CCCCC1 ?
DENV2 CPE: -7; E-selectin induc: 0; Cneo AK release: -1

How did COc1ccc(CN(C)C[C@H]2Oc3c(NS(=O)(=O)c4ccc(C)cc4)cccc3C(=O)N([C@H](C)CO)C[C@@H]2C)cc1 do in these assays?
DENV2 CPE: 31*; E-selectin induc: 0; Cneo AK release: 0; Yeast UUG start: 1

How did COc1ccc(CN(C)C[C@H]2Oc3c(NS(=O)(=O)c4ccc(C)cc4)cccc3C(=O)N([C@H](C)CO)C[C@H]2C)cc1 do in these assays?
DENV2 CPE: -3; E-selectin induc: 1; Cneo AK release: 0; Yeast UUG start: 28

How did COc1ccc(S(=O)(=O)Nc2cccc3c2O[C@H](CN(C)Cc2ccc(Cl)c(Cl)c2)[C@@H](C)CN([C@H](C)CO)C3=O)cc1 do in these assays?
DENV2 CPE: 25*; E-selectin induc: 0; Cneo AK release: 1; Yeast UUG start: 16

Results for C[C@@H]1CN([C@H](C)CO)C(=O)c2cccc(NS(=O)(=O)c3cccs3)c2O[C@H]1CN(C)Cc1ccc(Cl)c(Cl)c1 ?
DENV2 CPE: 41*; E-selectin induc: 349*; Cneo AK release: -5; Yeast UUG start: 13

Results for CC(=O)N(C)C[C@@H]1Oc2ncc(C3=CCCC3)cc2C(=O)N([C@@H](C)CO)C[C@H]1C ?
DENV2 CPE: 19; E-selectin induc: 0; Cneo AK release: -3; Yeast UUG start: 11

Results for CO[C@@H]1CN(C)C(=O)c2ccc(NS(=O)(=O)c3ccc(Cl)cc3)cc2OC[C@H](C)NC[C@@H]1C ?
DENV2 CPE: 0; E-selectin induc: 0; Cneo AK release: -1; Yeast UUG start: -1

Results for Cc1ccc(C(=O)Nc2cc(C)nn2CCC#N)cc1 ?
DENV2 CPE: 12; E-selectin induc: 32*; Cneo AK release: -3; Yeast UUG start: -11

How did COc1ccccc1C(=O)Nc1ccc2c(c1)CN(Cc1cnc(C)s1)CC2 do in these assays?
DENV2 CPE: 33*; E-selectin induc: 0; Cneo AK release: -1; Yeast UUG start: -5

How did CC(C)C(NS(=O)(=O)c1ccc2c(c1)C(C)(C)C(=O)N2C)C(=O)NCc1ccccc1Cl (centres undefined) do in these assays?
DENV2 CPE: 80*; E-selectin induc: 0; Cneo AK release: 1; Yeast UUG start: -4

What do the screens show for `Cc1ccccc1CNS(=O)(=O)c1ccc2c(c1)C(C)(C)C(=O)N2C`?
DENV2 CPE: -3; E-selectin induc: 0

How did Cc1noc(C)c1NC(=O)N(C)C[C@H]1OCCCC[C@@H](C)Oc2ccc(NC(=O)c3ccncc3)cc2C(=O)N([C@H](C)CO)C[C@H]1C do in these assays?
DENV2 CPE: -1; E-selectin induc: 0; Cneo AK release: 0; Yeast UUG start: -3

Results for CC(C)c1ccc(NC(=O)[C@H](NC(=O)[C@@H]2Cc3ccccc3CN2)c2ccccc2)cc1 ?
DENV2 CPE: 57*

What do the screens show for `O=C(c1ccc(F)cc1)N1CCCCN2[C@@H](CO)[C@H](c3ccc(/C=C/c4ccccc4)cc3)[C@@H]2C1`?
DENV2 CPE: -23; E-selectin induc: -1; Cneo AK release: -1; Yeast UUG start: 13

What do the screens show for `Cc1ccc(S(=O)(=O)N2CCOCC2)cc1C(=O)NC1CCCCC1`?
Cneo AK release: -3; Yeast UUG start: -7

Results for N#CCc1ccc(NC(=O)c2cc(S(=O)(=O)N3CCOCC3)ccc2Cl)cc1 ?
DENV2 CPE: 60*; E-selectin induc: 0; Cneo AK release: 2; Yeast UUG start: -16

Results for Cc1ccccc1OCCOC(=O)c1cc(S(=O)(=O)N2CCOCC2)ccc1C ?
DENV2 CPE: 72*; Cneo AK release: -1; Yeast UUG start: -30

Assay outcomes: PubChem, Broad Institute
